Measurements: patent US6448262B1, “Pesticidal and parasiticidal use of 2-(substituted thio) thiazolo-[4,5-b]pyridine compounds” (American Cyanamid Company, priority 1998, dated 2002)
Read-outs that look alike come from different tables or passages of the source.

Tested on: Root-knot nematode, Meloidogyne incognita
Type: in vivo
Conditions: potted tomato, scored 4 weeks after inoculation
Excerpt: Soil Nematicide Assay Targeting Root-knot Nematode, Meloidogyne incognita on Potted Tomato
The test compound is solubilized in acetone and diluted with water to the required test concentration. Silty loam soil in a 3 inch pot with a 3-week-old tomato transplant is drenched with the test solution. Four thousand root-knot nematode Meloidogyne incognita J2 larvae are dispensed in a aqueous suspension onto the soil. The pots are kept in the greenhouse and 4 weeks following inoculation of the pots, plant roots are washed free of soil and scored for the degree of root galling using the root-knot galling index identified below.

## CCCSP(=O)(OCC)SCCC [Ethoprophos, reference compound]
Rate 10 ppm soil drench
  Galling Index: 0 (0)
Rate 25 ppm soil drench
  Galling Index: 0^1 (0)
Rate 50 ppm soil drench
  Galling Index: 0^1 (0)
